Assay: Solubility of cerium compound in simulated gastric fluid (appearance and absorbance)
Conditions: 0.05 M cerium in simulated gastric fluid (pH ca. 1.2), inversion mixing at room temperature about one hour

Substance	appearance of measurement sample in simulated gastric fluid
cerium(III) chloride heptahydrate [cerium chloride]	clear liquids without visually observable precipitate
cerium(III) nitrate [cerium nitrate]	clear liquids without visually observable precipitate
